# Test results reported in PubChem BioAssay AID720591 (Broad Institute, 2013).
# Sequences of proteins named here, by UniProt entry; tags and fusion partners are left off. A change or cut given only in a name is not applied to a line headed by its entry.
# UniProt Q9NXA8: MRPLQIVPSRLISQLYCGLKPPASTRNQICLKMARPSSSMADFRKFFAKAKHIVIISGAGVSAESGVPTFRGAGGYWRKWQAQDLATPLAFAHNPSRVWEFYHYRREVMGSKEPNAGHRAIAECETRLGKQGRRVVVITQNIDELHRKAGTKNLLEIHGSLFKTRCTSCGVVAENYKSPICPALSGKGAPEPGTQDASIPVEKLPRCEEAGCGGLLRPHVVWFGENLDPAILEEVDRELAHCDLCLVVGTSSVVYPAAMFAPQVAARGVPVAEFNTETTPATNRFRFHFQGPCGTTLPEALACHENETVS
# The entries are a selection whose mix differs from that of the whole data set. Entries with a potency or affinity are not part of this list. Activity calls are given as the source filed them.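 The calls were made as follows: active = Decreasing signal and fitted IC50 at most twice the top valid tested dose; inconclusive = Bad fit or a level curve showing 30 to 70% inhibition; inactive = the rest.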
# Target: NAD-dependent protein deacylase sirtuin-5, mitochondrial (Homo sapiens) (UniProt Q9NXA8)
# Assay: sirtuin-5 deacylation blockers, concentration series – biochemical, fluorescence imaging, cherry-pick, set 5, dose response (AID 720591);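 also: 0% = median of neutral control wells and -100% = median of positive control wells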
# Conditions: Purified SirT5, succinyl-peptide AMC, trypsin-coupled fluorescence; at 15 µM (top of the series)
row,Compound,"activity change, negative = inhibition"
1,CCCCOc1ccc(C(=O)NCC2(N3CCCCC3)CCCCC2)cc1OC,inactive: -19.5%
